# Assay results from patent US11596691B2, “Photoswitchable HDAC inhibitors” (The General Hospital Corporation, priority 2013, dated 2023).
# Sequences of proteins named here, by UniProt entry; tags and fusion partners are left off. A change or cut given only in a name is not applied to a line headed by its entry.
# UniProt O15379: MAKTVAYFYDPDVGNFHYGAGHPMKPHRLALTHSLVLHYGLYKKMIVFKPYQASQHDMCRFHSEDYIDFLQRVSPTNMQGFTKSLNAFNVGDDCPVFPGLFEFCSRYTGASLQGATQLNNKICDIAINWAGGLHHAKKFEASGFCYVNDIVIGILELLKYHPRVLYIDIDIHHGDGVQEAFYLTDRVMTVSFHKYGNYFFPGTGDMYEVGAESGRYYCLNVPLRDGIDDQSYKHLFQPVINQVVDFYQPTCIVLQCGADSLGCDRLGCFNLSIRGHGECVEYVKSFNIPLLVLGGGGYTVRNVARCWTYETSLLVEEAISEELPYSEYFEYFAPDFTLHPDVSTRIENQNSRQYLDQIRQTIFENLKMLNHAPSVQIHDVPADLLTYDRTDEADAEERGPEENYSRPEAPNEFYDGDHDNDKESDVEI
# Molecular target: T1, HDAC3 (Homo sapiens, UniProt O15379)
# T1 construct: 40 μL of a stock solution of full-length HDAC protein at three times the desired final concentration
# Test: Light-dependent HDAC3 biochemical assay (acetyl-lysine tripeptide based on acH4K12)
# Settings: in the presence and absence of light
# Method: Compounds were added to white 96-well plates containing 40 μL of HDAC assay buffer (50 mM HEPES, 100 mM KCl, 0.05% BSA, 0.001% Tween-20 at pH 7.4) by pin transfer. To the assay plate was added 40 μL of a stock solution of full-length HDAC protein at three times the desired final concentration. After addition the plate was centrifuged to mix the solution while removing air bubbles. […] After which, reads were taken every 15 minutes to follow the fluorogenic release of 7-amino-4-methylcoumarin from the substrate resulting from deacetylase and trypsin enzymatic activity. In between reads the LED excitation device was reaffixed on top of the plate ensuring maximum cis-isomer population. In parallel to this, a second plate was prepared identically and measured for activity but this plate was not excited by our device but rather was covered to prevent any ambient light from shining on the plate. Replicate pairs of plates were performed.
compound,measurement,value
"O=C(CCCCCCC(=O)Nc1ccccc1)NO [SAHA, reference compound]",inhibition of HDAC3 enzymatic activity,additional inhibition of HDAC3
